Test system: methicillin-resistant Staphylococcus aureus (MRSA)
Experiment: Antibacterial activity, agar well diffusion method
Assay type: cell-based
Details: read-out: Diameter of inhibition zone
Procedure: Methicillin-resistant Staphylococcus aureus (MRSA), extended spectrum beta-lactamase-producing Escherichia coli (ESBL-producing E. coli) and the agar well diffusion method were used to evaluate the antibacterial activity of the isolated compounds [29]. The strains were cultured in nutrient broth at 37 °C for 18 h and diluted with steriled 0.9% NaCl to obtain the 1.5 × 10^8 CFU/mL bacterial solution. Then, 100 μL of the bacterial solution was spread on Mueller–Hinton agar (MHA) plate on which 8-mm wells were created aseptically with tips. The isolated compounds were dissolved in dimethyl sulfoxide at the concentration of 1 mg/mL and 50 μL of each compound solution was applied in each well. The plates were incubated at 37 °C for 16–18 h and the diameters of the inhibtion zones were measured. Dimethyl sulfoxide and apramycin were used as controls in this experiment.

## COc1cc(O)c2c(=O)c(O)c(-c3ccc(O)cc3)oc2c1 [Compound 4, rhamnocitrin]
  zone of inhibition at 50 µg/disc: 14 mm
